How the values were obtained:
Assay type in all cases: cell-based
[1] = target: T1, Kv1.4 (mouse LTK fibroblasts stably transfected with Kv1.4) (Homo sapiens, UniProt P22459); experiment: Whole-cell patch-clamp electrophysiology on Kv1.4; conditions: mouse LTK fibroblasts stably transfected with Kv1.4, peptide 100 nM
T1 construct: expressed in transfected cells

Protein sequences, listed by entry. Tags and fused reporters are not part of them.
UniProt P22459, whole entry: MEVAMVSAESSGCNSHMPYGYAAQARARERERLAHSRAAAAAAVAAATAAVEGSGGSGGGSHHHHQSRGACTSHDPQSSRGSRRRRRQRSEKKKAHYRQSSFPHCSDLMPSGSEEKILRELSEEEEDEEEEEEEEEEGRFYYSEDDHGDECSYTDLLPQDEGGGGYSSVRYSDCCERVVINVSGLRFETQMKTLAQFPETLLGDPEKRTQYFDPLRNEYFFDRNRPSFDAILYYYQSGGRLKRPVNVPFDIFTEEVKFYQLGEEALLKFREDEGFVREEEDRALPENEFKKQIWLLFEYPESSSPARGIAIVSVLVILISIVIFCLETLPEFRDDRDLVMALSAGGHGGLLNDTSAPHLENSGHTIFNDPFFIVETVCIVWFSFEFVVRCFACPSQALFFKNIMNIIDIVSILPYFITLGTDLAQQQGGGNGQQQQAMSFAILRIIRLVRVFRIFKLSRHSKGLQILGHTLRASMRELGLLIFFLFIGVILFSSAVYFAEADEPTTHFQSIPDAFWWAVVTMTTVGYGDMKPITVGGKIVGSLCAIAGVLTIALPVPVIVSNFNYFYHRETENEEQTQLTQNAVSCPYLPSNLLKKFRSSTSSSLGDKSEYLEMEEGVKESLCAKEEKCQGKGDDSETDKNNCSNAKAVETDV
UniProt P16388, whole entry: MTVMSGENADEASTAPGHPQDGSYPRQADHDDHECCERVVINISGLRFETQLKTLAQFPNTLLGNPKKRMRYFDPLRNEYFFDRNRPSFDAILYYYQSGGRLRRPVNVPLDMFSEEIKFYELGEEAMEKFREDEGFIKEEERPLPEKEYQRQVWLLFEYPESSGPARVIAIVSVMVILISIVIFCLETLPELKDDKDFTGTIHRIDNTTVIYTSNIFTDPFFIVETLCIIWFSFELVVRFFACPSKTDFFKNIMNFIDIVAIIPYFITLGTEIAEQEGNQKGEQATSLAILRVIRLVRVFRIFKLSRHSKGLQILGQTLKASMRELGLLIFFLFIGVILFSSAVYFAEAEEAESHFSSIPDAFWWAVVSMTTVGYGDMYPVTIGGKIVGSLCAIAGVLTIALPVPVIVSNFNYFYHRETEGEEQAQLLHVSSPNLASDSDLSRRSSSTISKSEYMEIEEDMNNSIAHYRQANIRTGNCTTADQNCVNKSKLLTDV
UniProt P16390, whole entry: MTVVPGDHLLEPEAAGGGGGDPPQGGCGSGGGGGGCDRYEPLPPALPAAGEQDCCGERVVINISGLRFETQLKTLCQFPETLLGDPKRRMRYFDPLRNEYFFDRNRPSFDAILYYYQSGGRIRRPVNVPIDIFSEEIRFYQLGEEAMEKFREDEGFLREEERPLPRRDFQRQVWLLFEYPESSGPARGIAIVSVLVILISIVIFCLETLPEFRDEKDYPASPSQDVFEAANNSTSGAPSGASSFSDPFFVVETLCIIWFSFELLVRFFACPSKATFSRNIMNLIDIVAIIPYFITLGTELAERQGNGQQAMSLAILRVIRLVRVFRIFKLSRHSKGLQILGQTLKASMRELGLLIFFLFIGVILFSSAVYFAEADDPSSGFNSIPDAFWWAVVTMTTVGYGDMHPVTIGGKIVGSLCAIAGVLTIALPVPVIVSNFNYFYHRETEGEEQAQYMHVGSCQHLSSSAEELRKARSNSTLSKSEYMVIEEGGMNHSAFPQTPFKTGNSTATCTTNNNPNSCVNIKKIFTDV
UniProt P17658, whole entry: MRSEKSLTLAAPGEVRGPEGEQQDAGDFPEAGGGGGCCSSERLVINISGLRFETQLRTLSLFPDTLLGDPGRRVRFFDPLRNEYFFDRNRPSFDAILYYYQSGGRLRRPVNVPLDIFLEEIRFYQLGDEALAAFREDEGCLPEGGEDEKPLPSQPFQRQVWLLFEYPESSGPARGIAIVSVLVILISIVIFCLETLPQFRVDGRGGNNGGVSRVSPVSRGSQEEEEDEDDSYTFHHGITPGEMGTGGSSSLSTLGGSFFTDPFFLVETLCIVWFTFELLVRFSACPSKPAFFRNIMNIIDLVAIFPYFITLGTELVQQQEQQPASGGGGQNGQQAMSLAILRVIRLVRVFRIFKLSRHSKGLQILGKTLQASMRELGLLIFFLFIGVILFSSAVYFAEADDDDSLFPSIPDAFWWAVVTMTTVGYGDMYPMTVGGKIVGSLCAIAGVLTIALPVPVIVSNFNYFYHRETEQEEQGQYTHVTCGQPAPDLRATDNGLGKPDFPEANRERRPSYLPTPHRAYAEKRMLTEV

[2] = target: T2, mKv1.1 channels stably expressed in mouse L929 fibroblasts (Mus musculus, UniProt P16388); experiment: Whole-cell patch-clamp electrophysiology on Kv1.1; conditions: for block of Kv1.1 at 100 nM: peptide 100 nM
T2 construct: expressed in transfected cells
Experimental: (§1) Mouse fibroblasts stably expressing homotetramers of Kv1.1 or Kv1.3 were patch-clamped in the whole-cell configuration and steady-state block was measured after addition of different concentrations of the peptides.
(§2) Chips averaged 2–3.5 MΩ and a holding potential of −80 mV was used for all recordings. Series resistance compensation of 80% was used when currents exceeded 2 nA. The external solution was normal Ringer solution containing (in mM): 160 NaCl, 4.5 KCl, 2 CaCl2, 1 MgCl2, 10 Hepes, pH 7.4, 310 mOsm. The internal solution contained (in mM): 145 KF, 10 HEPES, 10 EGTA (ethylene glycol tetraacetic acid), 2 MgCl2, pH 7.2, 300 mOsm. Currents were elicited by repeated 200 ms pulses to 40 mV applied at intervals of 30 s for Kv1.3 and 10 s for Kv1.1. IC50 values were determined by fitting the Hill equation to the reduction of area under the current curve measured at 40 mV in the presence of different concentrations of the peptides (GraphPad Prism software, La Jolla, CA, USA).

[3] = target: T3, mKv1.3 channels stably expressed in mouse L929 fibroblasts (Mus musculus, UniProt P16390); experiment: Whole-cell patch-clamp electrophysiology on Kv1.3; conditions: for IC50: whole-cell patch-clamp, mKv1.3 in L929 fibroblasts, 200 ms pulses to 40 mV every 30 s, holding -80 mV, Hill fit, n = 3 to 6 cells per concentration
T3 construct: expressed in transfected cells
Experimental: as §1, §2

[4] = target: T4, hKv1.6 (HEK cells transiently transfected with hKv1.6:eGFP) (Homo sapiens, UniProt P17658); experiment: Whole-cell patch-clamp electrophysiology on Kv1.6; conditions: patched 19 h after transfection, peptide 100 nM
T4 construct: expressed in transfected cells; host or cells: HEK cells, transient, Lipofectamine 2000 (plasmid a gift from Dr. Heike Wulff)
Experimental: The HEK cells were patched 19 h after transfection.
as §2

Row | SMILES | block of Kv1.4 at 100 nM [1] [% block at 100 nM] | block of Kv1.1 at 100 nM [2] [% block at 100 nM] | effect on Kv1.1 currents at concentrations up to 100 nM [2] | IC50 [3] [nM] | block of Kv1.6 at 100 nM [4] | loss of efficacy (potency) on Kv1.3 relative to ShK ([3]; from patch-clamp IC50 values) [fold]
1 | CCCC[C@@H]1NC(=O)[C@H](CO)NC(=O)[C@H](Cc2c[nH]cn2)NC(=O)[C@H](CCCCN)NC(=O)[C@@H]2CSSC[C@@H]3NC(=O)[C@H]([C@@H](C)O)NC(=O)[C@H](CCCCN)NC(=O)[C@H](CCCNC(=N)N)NC(=O)[C@H](CSSC[C@H](NC(=O)[C@H](CCCNC(=N)N)NC(=O)[C@H](CO)NC(=O)[C@H](CCCCN)NC(=O)[C@@H]4CCCN4C(=O)[C@H]([C@@H](C)CC)NC(=O)[C@H]([C@@H](C)O)NC(=O)[C@H](CC(=O)O)NC(=O)[C@H]([C@@H](C)CC)NC(=O)[C@@H](NC(=O)[C@H](CO)NC(=O)[C@H](CCCNC(=N)N)NC(=O)COCCOCCNC(=O)[C@@H](N)Cc4ccc(P(=O)(O)O)cc4)CSSC[C@@H](C(N)=O)NC(=O)[C@H]([C@@H](C)O)NC(=O)CNC3=O)C(=O)N[C@@H]([C@@H](C)O)C(=O)N[C@@H](C)C(=O)N[C@@H](Cc3ccccc3)C(=O)N[C@@H](CCCCN)C(=O)N2)NC(=O)[C@H](Cc2ccccc2)NC(=O)[C@H](CO)NC(=O)[C@H](CC(C)C)NC(=O)[C@H](CCCNC(=N)N)NC(=O)[C@H](Cc2ccc(O)cc2)NC(=O)[C@H](CCCCN)NC1=O [ShK-223] | <5 | <10 | neither ShK-223 nor ShK-224 had any effect | 0.025 ± 0.014 | <10% block at 100 nM | 
2 | CC[C@H](C)[C@@H]1NC(=O)[C@@H](NC(=O)[C@H](CO)NC(=O)[C@H](CCCNC(=N)N)NC(=O)COCCOCCNC(=O)[C@@H](N)Cc2ccc(P(=O)(O)O)cc2)CSSC[C@@H](C(N)=O)NC(=O)[C@H]([C@@H](C)O)NC(=O)CNC(=O)[C@@H]2CSSC[C@@H]3NC(=O)[C@H](CCCCN)NC(=O)[C@H](Cc4ccccc4)NC(=O)[C@H](C)NC(=O)[C@H]([C@@H](C)O)NC(=O)[C@H](CSSC[C@H](NC(=O)[C@H](Cc4ccccc4)NC(=O)[C@H](CO)NC(=O)[C@H](CC(C)C)NC(=O)[C@H](CCCNC(=N)N)NC(=O)[C@H](Cc4ccc(O)cc4)NC(=O)[C@H](CCCCN)NC(=O)[C@H](CCSC)NC(=O)[C@H](CO)NC(=O)[C@H](Cc4c[nH]cn4)NC(=O)[C@H](CCCCN)NC3=O)C(=O)N[C@@H](CCCNC(=N)N)C(=O)N[C@@H](CCCCN)C(=O)N[C@@H]([C@@H](C)O)C(=O)N2)NC(=O)[C@H](CCCNC(=N)N)NC(=O)[C@H](CO)NC(=O)[C@H](CCCCN)NC(=O)[C@@H]2CCCN2C(=O)[C@H]([C@@H](C)CC)NC(=O)[C@H]([C@@H](C)O)NC(=O)[C@H](CC(=O)O)NC1=O [ShK-224] | <20 | <10 | neither ShK-223 nor ShK-224 had any effect | 0.164 ± 0.059 | ~25% | 12
